Literature values in US20230248744A1, “25-HYDROXYVITAMIN D2 AND/OR D3 FOR USE IN OBESITY” (CARBOGEN AMCIS B.V., priority 2020, published 2023).
Read-outs that look alike come from different tables or passages of the source.

Legend:
[1] = cited from earlier work
[2] = oral single dose of 1250 μg; cited from earlier work
[3] = men and women, 50,000 IU (1250 μg) once a week for 8 weeks

## vitamin D
[1]; [3]
  serum 25(OH)D maintained: > 30 ng/mL
  toxicity: without toxicity
[1]; single or multiple oral doses of 1250 μg vitamin D, or a dose of 900 μg 25(OH)D3
  reports of toxicity: toxicity has never been reported
[1]; single oral dose of 1250 μg once a week for 8 weeks or every 2 weeks for up to 6 years
  toxicity: not associated with toxicity
[2]
  toxicity in pharmacokinetic study: did not show any untoward toxicity
